Measured values published in patent publication US11298431B2, “Method for labeling radioisotope radiolabeling compound and kit comprising the same for labeling radioisotope” (KOREA ATOMIC ENERGY RESEARCH INSTITUTE, priority 2018, dated 2022).
Several values for one entry are separate records, joined by “and”; a condition that tells them apart may be missing. Equal values may be shown once.

Test: In vivo biodistribution of 125I-labeled HSA in ICR male mice
Conditions: i.v.

Substance: [^125I] 10: HSA directly radioiodinated through tyrosine ring using [^125I] NaI and chloramine-T, for comparison
- Blood radioactivity (0.5 h after injection): 30.1 % ID/g
- Heart radioactivity (0.5 h after injection): 5.9 % ID/g
- Kidney radioactivity (0.5 h after injection): 6.1 % ID/g
- Large intestine radioactivity (0.5 h after injection): 0.88 % ID/g
- Liver radioactivity (0.5 h after injection): 5.1 % ID/g
- Lung radioactivity (0.5 h after injection): 8.1 % ID/g
- Spleen radioactivity (0.5 h after injection): 3.6 % ID/g
- Thyroid radioactivity (0.5 h after injection): 2.1 % ID/g
- Blood radioactivity (3 h after injection): 25.3 % ID/g
- Kidney radioactivity (3 h after injection): 5.3 % ID/g
- Large intestine radioactivity (3 h after injection): 0.95 % ID/g
- Liver radioactivity (3 h after injection): 3.0 % ID/g
- Lung radioactivity (3 h after injection): 7.7 % ID/g
- Stomach radioactivity (3 h after injection): 1.8 % ID/g
- Thyroid radioactivity (3 h after injection): 15.3 % ID/g
- Blood radioactivity (6 h after injection): 14.5 % ID/g
- Heart radioactivity (6 h after injection): 3.5 % ID/g
- Kidney radioactivity (6 h after injection): 5.5 % ID/g
- Large intestine radioactivity (6 h after injection): 1.1 % ID/g
- Liver radioactivity (6 h after injection): 2.8 % ID/g
- Lung radioactivity (6 h after injection): 7.1 % ID/g
- Small intestine radioactivity (6 h after injection): 1.9 % ID/g
- Spleen radioactivity (6 h after injection): 2.8 % ID/g
- Stomach radioactivity (6 h after injection): 5.8 % ID/g
- Thyroid radioactivity (6 h after injection): 75.3 % ID/g
- Blood radioactivity (24 h after injection): 8.3 % ID/g
- Heart radioactivity (24 h after injection): 2.8 % ID/g
- Kidney radioactivity (24 h after injection): 4.2 % ID/g
- Large intestine radioactivity (24 h after injection): 1.2 % ID/g
- Liver radioactivity (24 h after injection): 1.9 % ID/g
- Lung radioactivity (24 h after injection): 5.2 % ID/g
- Small intestine radioactivity (24 h after injection): 1.7 % ID/g
- Thyroid radioactivity (24 h after injection): 255.1±66.21 % ID/g and 255.1 % ID/g
- Blood radioactivity (36 h after injection): 6.1 % ID/g
- Heart radioactivity (36 h after injection): 2.1 % ID/g
- Kidney radioactivity (36 h after injection): 3.8 % ID/g
- Large intestine radioactivity (36 h after injection): 1.0 % ID/g
- Liver radioactivity (36 h after injection): 1.8 % ID/g
- Lung radioactivity (36 h after injection): 4.9 % ID/g
- Small intestine radioactivity (36 h after injection): 1.5 % ID/g
- Spleen radioactivity (36 h after injection): 1.5 % ID/g
- Stomach radioactivity (36 h after injection): 14.2 % ID/g
- Thyroid radioactivity (36 h after injection): 395.2±59.98 % ID/g and 395.2 % ID/g
